Values of other authors in patent publication US20200253945A1, “DELAYED RELEASE DEFERIPRONE TABLETS AND METHODS OF USING THE SAME” (Chiesi Farmaceutici S.p.A., priority 2017, published 2020).

Conditions: ALS

SMILES: Nc1nc2ccc(OC(F)(F)F)cc2s1 [Riluzole]
- increase in survival: 2-3 months
